Tests used:
PI3K alpha = PI3K alpha (Homo sapiens (Human), UniProt P42336); test: Enzymatic PI3K alpha isoform inhibition (lipid kinase activity, Kinase-Glo luminescence); format: biochemical; details: Enzymatic assay
Experimental: (§1) 1.1 Test of Lipid Kinase Activity […]
(§2) In a more preferred assay, the kinase reaction is performed in a final volume of 10 μl per well of a low volume non-binding CORNING, 384 well black plate (Cat. No. #3676). The final concentrations of ATP and phosphatidyl inositol (PI) in the assay are 1 μM and 10 μg/mL, respectively. The reaction is started by the addition of ATP.
The components of the assay are added per well as follows: […]
IC50 is determined by a four parameter curve fitting routine that comes along with “excel fit”. […] Alternatively, IC50 values are calculated using idbsXLfit model 204, which is a 4 parameter logistic model.
(§3) Yet alternatively, for an ATP depletion assay, compounds of the formula I to be tested are dissolved in DMSO and directly distributed into a white 384-well plate at 0.5 μl per well. […] The stopped reaction is incubated for 5 minutes and the remaining ATP is then detected via luminescence. IC50 values are then determined.

By UniProt entry, the sequences of proteins in these tests, tags left out. Where a name states a change or a piece, a line headed by the entry shows the natural chain unless it says otherwise. Chains listed by the source or under a name are the forms on record and can include a tag or linker.
UniProt P42336, other isoform, or with tags, fused parts or gaps: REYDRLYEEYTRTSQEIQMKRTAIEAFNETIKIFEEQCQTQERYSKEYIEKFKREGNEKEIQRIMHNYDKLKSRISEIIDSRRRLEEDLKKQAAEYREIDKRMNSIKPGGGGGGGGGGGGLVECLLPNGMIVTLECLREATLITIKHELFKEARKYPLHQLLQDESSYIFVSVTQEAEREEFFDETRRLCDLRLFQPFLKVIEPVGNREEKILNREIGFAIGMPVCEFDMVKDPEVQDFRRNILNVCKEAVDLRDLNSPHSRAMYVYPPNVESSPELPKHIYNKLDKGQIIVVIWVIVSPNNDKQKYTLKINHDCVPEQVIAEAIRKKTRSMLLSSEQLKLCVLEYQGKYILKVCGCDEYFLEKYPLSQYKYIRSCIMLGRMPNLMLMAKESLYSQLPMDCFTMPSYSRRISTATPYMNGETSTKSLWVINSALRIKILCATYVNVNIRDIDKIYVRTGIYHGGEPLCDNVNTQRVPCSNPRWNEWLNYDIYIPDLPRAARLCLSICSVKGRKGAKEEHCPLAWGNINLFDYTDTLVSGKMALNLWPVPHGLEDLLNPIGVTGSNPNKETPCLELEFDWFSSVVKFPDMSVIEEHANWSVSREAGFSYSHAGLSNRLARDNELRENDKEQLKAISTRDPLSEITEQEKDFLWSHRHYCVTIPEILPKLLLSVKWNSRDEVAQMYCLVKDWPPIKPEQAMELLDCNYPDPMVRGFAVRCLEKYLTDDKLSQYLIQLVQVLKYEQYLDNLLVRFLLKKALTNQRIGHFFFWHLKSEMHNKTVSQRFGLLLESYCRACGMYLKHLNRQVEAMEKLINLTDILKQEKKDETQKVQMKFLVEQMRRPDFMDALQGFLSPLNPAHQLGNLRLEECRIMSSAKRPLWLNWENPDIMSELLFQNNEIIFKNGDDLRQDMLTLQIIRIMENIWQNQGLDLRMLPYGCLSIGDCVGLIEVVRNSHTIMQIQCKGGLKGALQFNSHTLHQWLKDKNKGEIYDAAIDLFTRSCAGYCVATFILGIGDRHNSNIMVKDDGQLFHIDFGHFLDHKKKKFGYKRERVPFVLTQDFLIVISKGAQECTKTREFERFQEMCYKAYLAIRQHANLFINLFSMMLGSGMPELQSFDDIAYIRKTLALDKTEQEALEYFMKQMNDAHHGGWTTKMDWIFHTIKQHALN
UniProt O00329: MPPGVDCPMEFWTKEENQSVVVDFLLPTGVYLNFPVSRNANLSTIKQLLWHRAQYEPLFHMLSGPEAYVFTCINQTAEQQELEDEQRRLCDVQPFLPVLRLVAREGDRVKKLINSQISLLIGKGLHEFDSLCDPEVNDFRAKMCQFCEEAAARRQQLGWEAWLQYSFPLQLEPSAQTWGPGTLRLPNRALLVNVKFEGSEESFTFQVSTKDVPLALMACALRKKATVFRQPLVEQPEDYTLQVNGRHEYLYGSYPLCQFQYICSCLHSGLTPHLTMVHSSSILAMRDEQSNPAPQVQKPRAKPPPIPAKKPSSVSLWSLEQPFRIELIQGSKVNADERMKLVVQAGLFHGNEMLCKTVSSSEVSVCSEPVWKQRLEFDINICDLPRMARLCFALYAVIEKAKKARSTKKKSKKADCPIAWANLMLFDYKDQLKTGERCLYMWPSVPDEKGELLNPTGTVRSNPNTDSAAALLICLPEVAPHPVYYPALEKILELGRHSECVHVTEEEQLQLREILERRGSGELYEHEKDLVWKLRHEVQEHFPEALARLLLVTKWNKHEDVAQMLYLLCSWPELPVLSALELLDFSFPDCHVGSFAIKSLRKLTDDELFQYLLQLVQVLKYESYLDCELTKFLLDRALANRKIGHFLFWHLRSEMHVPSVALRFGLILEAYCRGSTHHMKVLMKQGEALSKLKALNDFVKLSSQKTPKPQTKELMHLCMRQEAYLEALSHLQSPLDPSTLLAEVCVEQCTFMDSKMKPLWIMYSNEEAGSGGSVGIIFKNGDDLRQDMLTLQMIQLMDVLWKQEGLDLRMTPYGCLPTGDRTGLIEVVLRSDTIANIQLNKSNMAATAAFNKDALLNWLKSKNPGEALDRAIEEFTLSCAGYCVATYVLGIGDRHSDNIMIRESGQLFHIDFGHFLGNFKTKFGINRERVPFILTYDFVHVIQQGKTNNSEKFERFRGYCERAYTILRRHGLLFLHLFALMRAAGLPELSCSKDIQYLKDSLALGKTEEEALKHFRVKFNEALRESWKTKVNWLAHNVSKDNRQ

PI3K delta = PI3K delta (Homo sapiens (Human), UniProt O00329); test: Enzymatic PI3K delta isoform inhibition (lipid kinase activity, Kinase-Glo luminescence); format: biochemical; details: Enzymatic assay
Experimental: as §1, §2
The components of the assay are added per well as follows:
The Z′ value is a universal measurement of the robustness of an assay. A Z′ between 0.5 and 1.0 is considered an excellent assay.
IC50 is determined by a four parameter curve fitting routine that comes along with “excel fit”. A four parameter logistic equation is used to calculate IC50 values (IDBS XLfit) of the percentage inhibition of each compound at 8 concentrations (usually 10, 3.0, 1.0, 0.3, 0.1, 0.030, 0.010 and 0.003 μM). Alternatively, IC50 values are calculated using idbsXLfit model 204, which is a 4 parameter logistic model.
as §3

SMILES	IC50 (PI3K alpha) [nM]	IC50 (PI3K delta) [nM]
COc1ncc(N2CCOc3ccc(O[C@H]4CCN(C(=O)c5cn(C)cn5)C4)cc32)cc1C#N [Example D1, (S)-2-methoxy-5-(6-((1-(1-methyl-1H-imidazole-4-carbonyl)pyrrolidin-3-yl)oxy)-2H-benzo[b][1,4]oxazin-4(3H)-yl)nicotinonitrile]	424	
CN(C)c1cc(N2CCOc3ccc(O[C@H]4CCN(C(=O)C5CCOCC5)C4)cc32)cnc1S(C)(=O)=O [Example B78, {(S)-3-[4-(5-Dimethylamino-6-methanesulfonyl-pyridin-3-yl)-3,4-dihydro-2H-benzo[1,4]oxazin-6-yloxy]-pyrrolidin-1-yl}-(tetrahydro-pyran-4-yl)-methanone]		23

— patent US9539260B2, “Dihydro-benzo-oxazine and dihydro-pyrido-oxazine derivatives” (Novartis AG, priority 2012, dated 2017)
